Assay: Solubility in water
Type: physicochemical

Question: With Cc1ccc(O)c([C@H](CCN(C(C)C)C(C)C)c2ccccc2)c1.O=C(O)C(O)C(O)C(=O)O [R-tolterodine tartarate, salt of 2-[(1R)-3-[bis(1-methylethyl)amino]-1-phenylpropyl]-4-methyl-phenol with (2R,3R)-2,3-dihydroxybutanedioic acid] as the compound, how does the “solubility in cold water” value (cold water) read?
Answer: poorly soluble

Question: And the solubility in water (water)?
Answer: poorly soluble
